Article PMC10226041, “Discovery of Ruthenium(II) Metallocompound and Olaparib Synergy for Cancer Combination Therapy” (Journal of Medicinal Chemistry, 2023)

Test system: MDA-MB-231 cells
Assay: MTT cell viability assay, MDA-MB-231 cells
Type: cell-based, human
Conditions: MDA-MB-231, 72 h, Olaparib 10 μM
Description: Following treatment, solutions were removed, thiazolyl blue tetrazolium bromide (MTT, 0.5 mg/mL) reagent was added to the cells, and plates were incubated for 4 h. The reduced purple formazan crystals were solubilized with 100 μL of DMSO, and the absorbance at 570 nm (620 nm as reference wavelength) was measured using a microplate reader. The average in percent reduction of cell viability was expressed relative to untreated control cells. The combinatorial effect was evaluated by the generation of the compound dose–response curve and a shift of the IC50 value in the presence or absence of Olaparib (graphed and calculated using GraphPad Prism software).

O=c1c(O)c(-c2ccc(O)c(O)c2)oc2cc(O)cc(O)c12 [Quercetin, reference compound]
fold shift = IC50 (−OLAP)/IC50 (+OLAP): >14.1
